# Earlier results in patent publication US20250101026A1, “Functionalized Allopurinol Derivatives for Treatment of Alzheimer’s Disease” (BOARD OF REGENTS OF THE UNIVERSITY OF NEBRASKA, priority 2022, published 2025).
# Sequences of proteins named here, by UniProt entry; tags and fusion partners are left off.
# UniProt Q99714, whole entry: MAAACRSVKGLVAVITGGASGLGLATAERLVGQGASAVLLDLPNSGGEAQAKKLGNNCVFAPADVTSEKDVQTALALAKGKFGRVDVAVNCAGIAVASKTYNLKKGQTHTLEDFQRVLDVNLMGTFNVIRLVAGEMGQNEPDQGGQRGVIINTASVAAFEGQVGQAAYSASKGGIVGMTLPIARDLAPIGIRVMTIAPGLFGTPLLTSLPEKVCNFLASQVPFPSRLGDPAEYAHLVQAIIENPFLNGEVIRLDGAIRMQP
# Biological target: ABAD (Homo sapiens, UniProt Q99714)
# Settings: read-out: IC50 (ABAD, literature); cited from earlier work
compound,measurement,value
COC1=CC(=CNNC(=O)[C@H](C)Nc2cccc3ccccc23)C(=O)C=C1,IC50,4.4 µM
